This note sets out measurements from patent US8143288B2, “Inhibitors of HCV replication” (priority 2005, dated 2012).

Experiment [1] has as its system HCV 1b-377-neo replicon cells. Nature of the experiment: HCV replicon FRET assay. Format: cell-based. Conditions: 72 hours. The text has this:
The HCV replicon cell line was isolated from colonies as described by Lohman, et. al. (Science 1999, 285, 110-113, expressly incorporated by reference in its entirety) and used for all experiments. The HCV replicon has the nucleic acid sequence set forth in EMBL Accession No.: AJ242652, the coding sequence of which is from nt 1801 to 7758.
The coding sequence of the published HCV replicon was synthesized by Operon Technologies, Inc. (Alameda, Calif.), and the fall-length replicon was then assembled in plasmid pGem9zf(+) (Promega, Madison, Wis.) using standard molecular biology techniques. […]
To perform the HCV FRET screening assay, 96-well cell culture plates were used. The FRET peptide (Anaspec, Inc., San Jose, Calif.) (Taliani et al., Anal. Biochem. 1996, 240, 60-67, hereby incorporated by reference in its entirety) contains a fluorescence donor, EDANS, near one end of the peptide and an acceptor, DABCYL, near the other end. The fluorescence of the peptide is quenched by […] resonance energy transfer (RET) between the donor and the acceptor, but as the NS3 protease cleaves the peptide the products are released from RET quenching and the fluorescence of the donor becomes apparent. […]

A further experiment has as its system HCV replicon. Nature of the experiment: Combination studies in HCV replicon system (FRET, method of Chou). Format: cell-based. How it is done: Since clinical drug resistance often develops in viral infections following single-agent therapies, there is a need to assess the additive, antagonistic, or synergistic properties of combination therapies. […] Drugs were tested at eleven concentrations each, diluted in DMSO by 3-fold dilutions. The highest concentration used for the four HCV inhibitors was 0.1 μM for Example 3 and 20 μM for the three other HCV antivirals. […] The drugs were tested as monotherapies and in combination with Example 3 at various concentration ratios. Cells were exposed to compounds for 72 hours and the amount of HCV inhibition was then determined using the FRET assay. The potential cytotoxicities of these combined agents were also analyzed in parallel by Alamar blue staining. The degree of antagonism or synergy was determined over a range of drug concentrations, and the combination response curves were fit to assess the antiviral effects of the drug treatment combinations. The concentration ratios were analyzed using the method of Chou. Table 5 reports the combination indices (CI) and the asymptotic confidence intervals at the different concentration ratios. All combination indices were tested for departure from additivity using isobologram methods.
For orientation: A replicon is a self-replicating genome or part of one, used to study replication in cells.

[2] abbreviates: combined with Example 3, molar ratio 1:1.
[3] abbreviates: combined with Example 3, molar ratio 2.5:1.

In turn, “Intron A: Intron A, tested in combination with Example 3; highest concentration 5,000 IU/mL” returned an EC50 in monotherapy in experiment [1] of 2 U/mL. Further, in the experiment with HCV replicon (setting [2]), the “CI at HCV inhibition of: 75%” value is on record as 0.88 +/− 0.15, the “CI at HCV inhibition of: 90%” value is 0.72 +/− 0.20, the “CI at HCV inhibition of: 95%” value is listed as 0.64 +/− 0.22 and the “Overall Result” value is “Additive/Synergistic”. Besides, the “CI at HCV inhibition of: 50%” value in the experiment with HCV replicon (combined with Example 3, molar ratio 1:1 (first number Example 3)) is recorded as 1.09 +/− 0.13. For the same substance, in the experiment on HCV replicon (setting [3]), the “CI at HCV inhibition of: 75%” value is on record as 0.82 +/− 0.16, the “CI at HCV inhibition of: 90%” value is on record as 0.71 +/− 0.22, the “CI at HCV inhibition of: 95%” value is 0.66 +/− 0.26 and the “Overall Result” value was “Additive/Synergistic”. In addition, the “CI at HCV inhibition of: 50%” value in the experiment on HCV replicon (combined with Example 3, molar ratio 2.5:1 (first number Example 3)) was 0.99 +/− 0.13. Also, in the experiment with HCV replicon (in combination with Example 3, replicon cells, 72 hours), the “combination response” value was “additivity at both the 50 and 75% effective levels”.
